Test: Partial agonist activity at KOR in guinea pig ileum assessed as inhibition of electrically-stimulated twitch

SMILES | Imax [%]
COC(=O)/C=C/C(=O)O[C@@]12CCC(=O)[C@@H]3Oc4c(O)ccc5c4[C@@]31CCN(CC1CC1)[C@@H]2C5 | 30
COC(=O)/C=C/C(=O)NC[C@H]1C[C@@]23CC[C@]1(OC)[C@@H]1Oc4c(O)ccc5c4[C@@]12CCN(CC1CC1)[C@@H]3C5 | 36

Reference: ChEMBL document CHEMBL2176977 (J Med Chem, 2012)
